# Measured affinities in a library of Ab-95 light chain variants

Data: MIT Lincoln Laboratory AlphaSeq set, Engelhart et al. 2022, doi:10.1038/s41597-022-01779-4, as distributed in FLAb.

All variants were tested on one target, the spike HR2 peptide PDVDLGDISGINAS (SARS-CoV-2).

The variants keep the heavy chain, the linker and the frameworks of Ab-95 (scFv order VH, the linker GGGGSGGGGSGGGGS, VL).
VH: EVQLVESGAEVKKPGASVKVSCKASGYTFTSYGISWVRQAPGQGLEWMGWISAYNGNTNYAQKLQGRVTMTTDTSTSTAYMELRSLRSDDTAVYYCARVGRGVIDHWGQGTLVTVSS
VL: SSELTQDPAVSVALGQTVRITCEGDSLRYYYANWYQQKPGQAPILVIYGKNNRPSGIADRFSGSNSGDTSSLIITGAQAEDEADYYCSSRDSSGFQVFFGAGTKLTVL

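The parent was found by panning a naive human phage display library on the peptide. In library AAYL52, one, two or three CDR residues were substituted; doubles and triples were drawn at random. The scFvs were displayed on barcoded MATa yeast, the peptide on MATalpha yeast. The frequency of each diploid, read from paired DNA barcodes, reflects how well the two displayed proteins bind. Scores were corrected for input abundance and mapped to Kd with protein pairs of known affinity run in the same pool. There are three technical replicates.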

Variants are written as CDR1, CDR2 and CDR3 of the light chain (limits as in the source). Parent: EGDSLRYYYAN, GKNNRPS, SSRDSSGFQVF. Every variant below is changed at N52 of the VL (sequential numbering). Each Kd is an estimate from the mating assay, the geometric mean of the replicates in which the pair was seen; lower is stronger. Where no diploid with the target was found in any replicate, the entry reads "no signal": below detection, most likely a poor binder, though not proof of it. The list is sorted by this average, lowest first, undetected variants last. Nonspecific signal, from three strains lacking the peptide, appeared in 28% of pairings of library AAYL52, centred on 8.2 µM (5% of these signals below 800 nM); values are not corrected for it. For each scFv, signals with the empty controls are counted beside the result. In this assay the parent's reference entry averaged 200 nM; its copy inside this library read 180 nM.

With EGDSLRYDYAN | GKNYRCS | SSRDSSGFQVF the result was 130 nM (3 of 3 replicates; controls 1 of 9). Variant EGDSLRYYYAN | GKNVRNS | SSRDSSGFQVF showed 180 nM (3 of 3 replicates; controls 0 of 9). For EGESLRYYYAN | GKNSRPS | SSRDSSGFQVF, the assay gave 350 nM (3 of 3 replicates; controls 0 of 9). For EGDSLRYYYAN | GANERPS | SSRDSSGFQAF, the assay gave 520 nM (3 of 3 replicates; controls 1 of 9). Variant EGDSLRYYYAN | GKNHRPS | SSRDSSGFQVI showed 540 nM (2 of 3 replicates; controls 3 of 9). Variant EGDSLRYYYAN | GKNKRPS | SSRDLSGFQVF showed 590 nM (3 of 3 replicates; controls 4 of 9).

With EGDSLRYYYAN | GKNQNPS | SSRDSSGFQVF the result was 620 nM (3 of 3 replicates; controls 4 of 9). With EGDSLRYYYAN | GKNKRPS | SSRDSAGFQVF the result was 630 nM (2 of 3 replicates; controls 2 of 9). With EGDGLRYYYAN | GKNVRPS | SSRYSSGFQVF the result was 1.0 µM (1 of 3 replicates; controls 5 of 9). For EGDSIRYYYAN | GKNVRPS | SSRDSSFFQVF, the assay gave 1.2 µM (3 of 3 replicates; controls 1 of 9). Variant EGDSLRFYYAN | GKNIRPS | SQRDSSGFQVF showed 1.7 µM (2 of 3 replicates; controls 1 of 9). For EGDSLRYYYAN | GKNFRPS | PSRDSSGFQVF, the assay gave 3.1 µM (2 of 3 replicates; controls 3 of 9).

Variant EGDSLRYYYAH | GFNTRPS | SSRDSSGFQVF showed 3.6 µM (1 of 3 replicates; controls 3 of 9). With ERDSLRYYYAN | GKNLRPS | SSRDSFGFQVF the result was 4.5 µM (2 of 3 replicates; controls 2 of 9). Variant EGDSLRYYYAN | GKNWRES | SSRDSSGFQVD showed 5.7 µM (3 of 3 replicates; controls 3 of 9). Variant EGDSLPYYYAN | GKNPRPS | SSRDSSGFQAF showed 6.0 µM (1 of 3 replicates; controls 2 of 9). For EGDQLRYYYAN | GKNGRPS | SSRDPSGFQVF, the assay gave 6.2 µM (2 of 3 replicates; controls 2 of 9). For EGDTLRYYYAN | GKNKRPS | SSRDMSGFQVF, the assay gave 6.4 µM (3 of 3 replicates; controls 1 of 9).

With EGDYLRYYYAN | GKNWDPS | SSRDSSGFQVF the result was 7.5 µM (2 of 3 replicates; controls 4 of 9). For EGDSLRYYYAN | GKNHRPS | SNRDSSGNQVF, the assay gave 8.3 µM (2 of 3 replicates; controls 1 of 9). Variant ERDSLRYYYAN | GKNFRPS | SSRDSSGFQVF gave 8.5 µM (3 of 3 replicates; controls 2 of 9). Variant EVDSLRYYYAN | GKNRRPS | SSRDSSGFGVF showed 9.7 µM (2 of 3 replicates; controls 2 of 9). Variant EGDSLRYYYAN | WKCRRPS | SSRDSSGFQVF showed 14 µM (2 of 3 replicates; controls 4 of 9). Variant EGDSLRYYYAN | GKRGRPS | SSRDSSGFQMF showed 15 µM (3 of 3 replicates; controls 5 of 9).

For EGDSQRYYYAN | GKNYRPS | SLRDSSGFQVF, the assay gave 28 µM (1 of 3 replicates; controls 2 of 9). Variant EGDSLRYYYAN | FKNIRPS | SSRDSSGNQVF showed 34 µM (2 of 3 replicates; controls 1 of 9). Variant EGDSLRYYYAA | GKNQRPS | SSRDSAGFQVF gave 57 µM (3 of 3 replicates; controls 5 of 9). Variant EGDSLRYYYAN | GKNARPS | SFRDSSGFQVW gave 110 µM (1 of 3 replicates; controls 3 of 9). With EGDSLRYYYAN | GKNKRPS | SSDDSSGFQVF the result was no signal (0 of 3 replicates; controls 2 of 9). Variant EGDSKRYYCAN | GKNWRPS | SSRDSSGFQVF showed no signal (0 of 3 replicates; controls 2 of 9).

With EGDSLRYYWAN | GKNPRPS | SSRDSSMFQVF the result was no signal (0 of 3 replicates; controls 0 of 9).